Experimental findings from PubChem BioAssay AID1025 (Sanford-Burnham Center for Chemical Genomics, 2008) are described below.

The chains behind the UniProt entries cited, without tags or fusion partners.
UniProt P33261, whole entry, looked up: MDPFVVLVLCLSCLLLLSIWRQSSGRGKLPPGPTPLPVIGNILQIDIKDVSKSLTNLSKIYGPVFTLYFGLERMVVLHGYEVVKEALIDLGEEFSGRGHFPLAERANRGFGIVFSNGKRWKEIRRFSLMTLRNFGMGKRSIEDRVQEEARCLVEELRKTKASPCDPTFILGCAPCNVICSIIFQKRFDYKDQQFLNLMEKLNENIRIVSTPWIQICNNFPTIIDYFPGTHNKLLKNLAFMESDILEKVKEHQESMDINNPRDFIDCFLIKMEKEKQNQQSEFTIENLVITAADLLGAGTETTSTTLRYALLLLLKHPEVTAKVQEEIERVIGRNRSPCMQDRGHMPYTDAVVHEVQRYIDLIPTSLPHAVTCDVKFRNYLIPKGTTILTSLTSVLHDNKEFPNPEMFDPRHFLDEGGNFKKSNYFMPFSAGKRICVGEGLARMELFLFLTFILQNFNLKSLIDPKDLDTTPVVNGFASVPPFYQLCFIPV

Molecules are shown by their SMILES. The list shows a part of the results. The source made the active and inactive calls.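 How the source made its calls: active means activation factor of at least 2 at 5 µM in the primary screen; inactive means the rest.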

This experiment has as its target Cytochrome P450 2C19 (Homo sapiens) (UniProt P33261). Kind of experiment: enhancers of cytochrome P450 2C19 turnover – biochemical, luminescence, primary screen (AID 1025).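 Further: 0 = wells with 2.5 mM tranylcypromine and 1 = vehicle-only wells.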 Conditions: recombinant CYP2C19, luciferin-H EGE luminescence; at 5 µM; hits give high values; 0 = fully inhibited enzyme, 1 = untreated enzyme.
As for `Cc1ccc(OCC(=O)OC2CN3CCC2CC3)cc1` (stereo not given), the activation factor is inactive: 1.1.

For `O=P1(Nc2ccc(Br)cn2)COc2ccccc2OC1`, the activation factor was inactive: 0.1.

On to `O=P1(Nc2ncccn2)COc2ccccc2OC1`, for which the activation factor is inactive: 1.1.

Turning to `Cc1nn(-c2ccccc2)c2c1P(=O)(N1CCOCC1)N(C)C(c1ccccc1)=N2` (stereo not given), the activation factor was inactive: 0.9.

With `Clc1n[nH]nc1-c1nn[nH][15n]1`, the activation factor is inactive: 1.

With `O=P1(Nc2ccccn2)COc2ccccc2OC1`, the activation factor is inactive: 0.4.

For `Cc1cccc(OCC(=O)OC2CN3CCC2CC3)c1` (stereo not given), the activation factor is inactive: 0.9.

Consider `O=[N+]([O-])c1ccc2c(c1)nnn2O`, for which the activation factor is inactive: 1.1.

Turning to `CCOP1(=S)c2c(C)nn(CCC#N)c2N=C(c2ccc(F)cc2)N1C` (stereo not given), the activation factor was inactive: 0.6.

In the case of `CCOP1(=S)c2c(C)nn(CCC#N)c2N=C(c2ccccc2F)N1C` (stereo not given), the activation factor was inactive: 0.1.

On to `O=P(Nc1nccs1)(c1ccccc1)c1nc2ccccc2s1` (stereo not given), for which the activation factor is inactive: 0.4.

Turning to `CCN(CC)C(=S)SC(NC=O)C(Cl)(Cl)Cl` (stereo not given), the activation factor is inactive: 0.5.

With `O=C(OC1CN2CCC1CC2)C12CC3CC(CC(C3)C1)C2` (stereo not given), the activation factor was inactive: 1.1.

Turning to `O=C(COc1ccccc1)OC1CN2CCC1CC2` (stereo not given), the activation factor was inactive: 1.

Turning to `COP1(=S)c2c(C)nn(CCC#N)c2N=C(c2ccc(F)cc2)N1C` (stereo not given), the activation factor was inactive: 0.6.

In the case of `CC1CCN(C(=O)Oc2c(Cl)cc(Cl)c3cccnc23)CC1`, the activation factor is inactive: 0.9.

As for `O=[N+]([O-])c1cccc2n[nH]nc12`, the activation factor was inactive: 1.1.

For `CC(=O)N1C2C3N(C(C)=O)C1C1N(C(C)=O)C(C(N1C(C)=O)N3C(C)=O)N2C(C)=O`, the activation factor was inactive: 0.5.

For the compound `CCc1nc2c(n1)c1c(non1O)c1c2no[n+]1[O-]`, the activation factor was inactive: 1.

With `CC(C)CC(=O)NC(Sc1ccc(Cl)cc1)C(Cl)(Cl)Cl` (stereo not given), the activation factor was inactive: 0.2.

Regarding `Oc1ccccc1CNc1ccccn1`, the activation factor is inactive: 0.5.

Turning to `Cc1c2non([O-])c-2c(C)[n+](=O)[n+]1[O-]`, the activation factor was inactive: 1.

On to `CCOP(=O)(Nc1ccccc1)OCC`, for which the activation factor is inactive: 0.9.

Consider `COC(=O)c1cc2c(s1)N=C(c1ccccc1)N(C)P2(=O)N1CCOCC1` (stereo not given), for which the activation factor was inactive: 1.

For the compound `CCC(=O)N1C2C3N(C(=O)CC)C1C1N(C(=O)CC)C(C(N1C(=O)CC)N3C(=O)CC)N2C(=O)CC`, the activation factor was inactive: 0.8.

As to `CCOC(=O)NC(Sc1ccccc1)C(Cl)(Cl)Cl` (stereo not given), the activation factor was inactive: 0.3.

On to `O=P1(Nc2nc3ccc(Cl)cc3s2)COc2ccccc2O1` (stereo not given), for which the activation factor is inactive: 0.9.

As for `c1nnnn1CCn1cnnn1`, the activation factor was inactive: 1.

`O=P(Nc1nccs1)(c1ccccc1)c1ccccc1`: the activation factor is inactive: 1.

As for `O=C(OC1CN2CCC1CC2)c1cccc(Cl)c1` (stereo not given), the activation factor is inactive: 0.9.
